## Binding of CDR-mutated scFvs to a peptide of the spike HR2 region

Source: Li et al. 2023 (doi:10.1038/s41467-023-39022-2), MIT Lincoln Laboratory and A-Alpha Bio; data file from the FLAb repository.

The target is the same throughout: PDVDLGDISGINAS, from the HR2 region of SARS-CoV-2 spike.

Each scFv is VH, three GGGGS repeats, VL, as in the parent Ab-14, and differs from it in the CDRs of the light chain only.
VH: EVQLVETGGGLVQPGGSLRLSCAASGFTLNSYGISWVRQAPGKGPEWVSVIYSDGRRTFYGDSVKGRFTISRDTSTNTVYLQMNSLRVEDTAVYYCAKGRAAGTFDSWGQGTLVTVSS
VL: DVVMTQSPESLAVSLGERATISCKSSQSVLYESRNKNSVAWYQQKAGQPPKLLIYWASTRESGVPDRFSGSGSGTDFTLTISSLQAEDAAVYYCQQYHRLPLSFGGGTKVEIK

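The parent was found by panning a naive human phage display library on the peptide. The variants were designed computationally from a first round of random CDR variants and then made and measured. Several design methods are mixed in this list. Affinity was read by AlphaSeq, a pooled yeast mating assay with surface-displayed partners. Mating (16 h, 30 °C) was followed by selection of diploids and sequencing of their barcodes. Read counts were normalised to the haploid input and turned into Kd by a linear fit to BCL2-family pairs of known affinity, for each replicate. There are six technical replicates.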

Variants are written as CDR1, CDR2 and CDR3 of the light chain (limits as in the source). Parent: KSSQSVLYESRNKNSVA, WASTRES, QQYHRLPLS.
Scale: log10 of Kd in nM, estimated from mating counts; low values are strong binders.
A mean of the replicates is given; it leaves out those without a signal.
An entry "not detected" has no value in the source: the pair was not observed among the diploids in any replicate. This suggests poor binding but is not conclusive.

log10 Kd (nM), mean | detected | CDR-L1 | CDR-L2 | CDR-L3
0.39 | 6/6 | KSPFSVYYGDRNKNSVA | EASTRES | QQYHRLPLS
0.29 | 6/6 | QLGKNQVGDTLMQHAIA | HDALRVD | QQYFRLPLL
-0.04 | 6/6 | KLEWSDLLESRNKQSVA | NASQRMS | QQYHRLPLS
0.53 | 6/6 | KLQQSELYEERNSNSVA | SASLREL | QQYHRLPLS
-0.10 | 6/6 | KFMQSWLGQSLNKNSVA | NASQREH | QQYHRLPLS
not detected | 0/6 | KLLQNVMTEGKNRNNVA | HMTMRED | QQYWRLPLS
-0.14 | 6/6 | KLSQSNLYESRNKNSVA | NASTRCS | QQYHRLPLS
0.22 | 6/6 | KVSQSYLYESRNKNSVA | HASTRES | QQYHRLPLS
not detected | 0/6 | KCSQSVLYESRLKNSVA | NASTRES | QVYHRLPCS
0.50 | 6/6 | MVNGIMDHLSKQTNNVA | ETVTREE | QQYDRLPLT
0.24 | 6/6 | KSSISYLYESQNKNSVA | AASTRES | QQYHRLPLS
-0.30 | 6/6 | KSSQSVLSEERNKNSVA | QASTRES | QQYHRLPLS
0.10 | 6/6 | HSSPSDLYESRNKNNVA | NASTRES | QQYHRLPLS
0.16 | 6/6 | KQSDSVKQESRNKNSVA | DASTRES | QQYHRLPLS
0.60 | 12/12 | KSSQSVLYESRNKNSVA | GASTRES | QQYHRLPLS
0.89 | 6/6 | KIGGVTNGISRSKNSVA | EQSTRED | QQYDRLPLV
1.04 | 6/6 | KLSQSVLYESRNKNSVA | WAVTRES | QQYHRLPLS
2.22 | 3/6 | LSHQSVYYESRNKNSVA | EASTRES | QQIHRLPLS
1.25 | 6/6 | KVSWLHWYWSRNKNSVA | EASTREQ | QQYHRLPLS
-0.32 | 6/6 | KVSQSVLQQSRNSNSVA | EASQREE | QQYHRLPLS
0.44 | 6/6 | KLLQVTENMQLNRNNVA | HMSTRED | QQYHRLPLS
3.01 | 3/6 | KSSQSWDYESRNPNSVA | WASTRES | YQYHRLPLS
1.82 | 6/6 | KVSEFMRGLMQKTDSIA | DNVTRNS | QQYDRLPLS
not detected | 0/6 | IIAENSDNLTEKLNSIA | ETSQVRQ | QQYHLLPLA
1.31 | 6/6 | KVTFYMQDSNAMDNSIA | QTNIYHE | QQYGRLPLV
0.67 | 6/6 | HLSDTVMQGSYYYNSVA | QESTRAD | QQYHRLPLS
0.53 | 6/6 | KFSGSKEMVNKDQESIA | GSHTIQE | QQYSRLPLA
0.24 | 6/6 | KMSQSVWYEQRNKNSVA | NGSTRFS | QQYHRLPLS
2.87 | 4/6 | MVSQLMLWGIHAKNSIA | EAQTRLN | QQYDRLPLF
0.79 | 6/6 | HINEVDPGVKNHYNNIA | DISEAAI | QQYFQLPLS
0.43 | 6/6 | KISQSVLYESRNLNSVA | GASTRES | QQYHRLPLS
0.22 | 6/6 | KSSQSWLYESRNKNSVA | WASTREE | QQYHRLPLS
0.99 | 6/6 | KLEISVMQWERNKNSVA | NASTREV | QQYHRLPLS
0.82 | 6/6 | KISQMARVGMTHGNSIA | EEATRAK | QQYHRLPLS
0.49 | 6/6 | KSSISFLYESRNKNSVA | EASTRES | QQYHRLPLM
0.28 | 6/6 | KVSQLVNFEGKNKNSVA | QMSTRES | QQYDRLPLS
1.52 | 5/6 | QMTGQLFEQGNRYEPIA | HESMKEK | QQYFQLPLT
-0.24 | 6/6 | KLSQSVLYESRQKNSVA | NASTRMQ | QQYHRLPLL
0.81 | 6/6 | KISQMSYYESINKNSVA | QKSTREE | QDYHRLPLS
0.40 | 6/6 | KISQMVRVGTTHGNSIA | EEATRAK | QQYHRLPLA
not detected | 0/6 | KSSQSWLYESRNKNPVL | GASFRES | QQYHRLPLS
3.21 | 1/6 | KLSISHNVESINKSNVA | EMVTRES | QQYDRLPLS
-0.29 | 6/6 | KVPQSMLYESRNKNSVA | NASQRES | QQYHRLPLS
-0.17 | 6/6 | HVHSLMAIWQEIQNNVA | DAQNRNA | QQYFRLPLA
1.23 | 6/6 | IMSEGQERDAARLNNIA | DHYTRAT | QQYARLPLH
2.74 | 2/6 | ILGDSVLTESRNKNSVA | DNSTRES | QQYDRLPLS
0.90 | 6/6 | MLSQMWGIGMKAKNSVA | QVSTRME | QQYDRLPLI
0.25 | 6/6 | KSSQSVLYEGRNSNSVA | DASTRWS | QQYHRLPLS
0.87 | 6/6 | KSSQSVFYESRNKNSVA | NGSTRES | QQYHRLPLS
not detected | 0/6 | KSEQSVLYESRNKNSVA | WASTRES | QQYGNLPLS
1.89 | 6/6 | KISYMGEHFSTNHSAIA | QADTREQ | QQYHRLPIS
1.87 | 4/6 | KLSGLMASSKFAKDNVA | ENNTREV | QQYDRLPLS
-0.45 | 6/6 | KLPQSVLYESRNKNSVA | GASTRLS | QQYHRLPLS
-0.15 | 6/6 | KISQSVLGEQRNKNSVA | DASTRES | QQYHRLPLS
-0.18 | 6/6 | KLQQSVEYESRNKNSVA | SASTRLS | QQYHRLPLS
-0.03 | 6/6 | KFSQSVLYESTTTNSVA | NASTRES | QQYHRLPLS
0.40 | 6/6 | HLGGTMTWESKAKNSVA | QSVTRAE | QQYHRLPLS
0.95 | 6/6 | KISGLYNFAQTNKNSIA | EMTTRTS | QHYHRLPLS
-0.09 | 6/6 | ALSQSMDMTSRNVNSVA | DLSTREN | QQYHRLPLS

From the list, the first 5 with no signal in any replicate:

CDR-L1,CDR-L2,CDR-L3,"log10 Kd (nM), mean",detected
KLLQNVMTEGKNRNNVA,HMTMRED,QQYWRLPLS,not detected,0/6
KCSQSVLYESRLKNSVA,NASTRES,QVYHRLPCS,not detected,0/6
IIAENSDNLTEKLNSIA,ETSQVRQ,QQYHLLPLA,not detected,0/6
KSSQSWLYESRNKNPVL,GASFRES,QQYHRLPLS,not detected,0/6
KSEQSVLYESRNKNSVA,WASTRES,QQYGNLPLS,not detected,0/6

The authors averaged sequences with at least three values out of six and counted those with two or fewer as poor binders.
A sequence that the file lists under several names has all its replicates pooled.
The range of this assay differs from that of the first round, and the authors advise against merging the two.
Nonspecific signal, from three strains lacking the peptide, appeared in 4% of pairings of all light chain designs, centred on 2.64 (5% of these signals below 1.59); values are not corrected for it.